This is an account of results in patent US20110098283A1, “3-CINNOLINECARBOXAMIDE DERIVATIVES AND THEIR USE FOR TREATING CANCER” (ASTRAZENECA AB, priority 2007, published 2011).

pIC50: −log10 of the molar value. A value given as a limit tells only on which side of the number the result lay.

This experiment has as its target T1, CSF-1R (His-tagged kinase domain, amino acids 568-912) (Homo sapiens, UniProt P07333).
T1 construct: The His-tagged kinase domain of CSF-1R (i.e., amino acids 568-912, GeneBank ID NM_005211); His; made in house; host or cells: baculovirus infected SF+Express insect cells
T1 sequence (P07333 568-912): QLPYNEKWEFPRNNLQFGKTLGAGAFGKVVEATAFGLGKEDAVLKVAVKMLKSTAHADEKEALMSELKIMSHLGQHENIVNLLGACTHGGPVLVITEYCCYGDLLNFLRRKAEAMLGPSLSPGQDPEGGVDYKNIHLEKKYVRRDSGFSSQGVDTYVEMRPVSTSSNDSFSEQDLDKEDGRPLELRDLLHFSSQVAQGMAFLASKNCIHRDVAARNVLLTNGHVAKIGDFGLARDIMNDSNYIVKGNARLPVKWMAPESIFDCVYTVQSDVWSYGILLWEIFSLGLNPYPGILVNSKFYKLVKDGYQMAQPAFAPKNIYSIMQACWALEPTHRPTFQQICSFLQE
In words: Assay 1: CSF-1R in vitro AlphaScreen Assay. Type of experiment: biochemical. The protocol: Assay 1: CSF-1R in vitro AlphaScreen Assay
Activity of purified CSF-1R was determined in vitro using an Amplified Luminescent Proximity Homogeneous Assay (ALPHA) (Perkin Elmer), which measures phosphorylation of the CSF-1R substrate, biotinylated poly-glutamine-tyrosine peptide (pEY-HTRF CisBio 61GT0BLD), as described below.
The phosphorylation of the CSF-1R substrate in the presence and absence of the compound of interest was determined. […] Plates were incubated at 25° C. for 18 hours in the dark. Phosphorylated substrate was detected by an EnVision plate reader (Perkin Elmer) 680 nm excitation, 520-620 nm emission. Data was graphed and IC50s calculated using Excel Fit (Microsoft).
In general terms: In Alpha technology, singlet oxygen from a donor bead excites a nearby acceptor bead.

As usually defined, the pIC50 is the negative decadic logarithm of the IC50, by convention in mol/L. The low end stands for a high IC50, the high end for a low IC50. `CCOc1cc2nnc(C(N)=O)c(Nc3ccc(F)cc3F)c2cc1N1CCN(C)CC1` [Example 7, 4-[(2,4-Difluorophenyl)amino]-7-ethoxy-6-(4-methylpiperazin-1-yl)cinnoline-3-carboxamide] showed a pIC50 of over 8.40.
